Measured values: PubChem BioAssay AID570 (The Scripps Research Institute Molecular Screening Center, 2006)
The list shows a part of the results, in another mix than the full data. Some tests of the compounds listed are not included; inactive here does not mean inactive elsewhere. Calls of active or inactive are those of the source.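 The calls were made as follows: active = inhibition above the mean of compound-free control plate wells plus 3 SD (cut at about 14% in these data); inactive = the rest.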

Molecular target: Collagenase 3 (Homo sapiens) (UniProt P45452)
Assay: human MMP13 inhibitors, primary screen, biochemical, FRET peptide cleavage (AID 570);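 also: 0% = DMSO wells and 100% = wells with reference MMP-13 inhibitor after basal subtraction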
Conditions: MMP-13 fTHP FRET cleavage, Mca fluorescence; at 4 µM; active compounds read high

SMILES | inhibition
O=C(OC1CN2CCC1CC2)C(CO)(c1ccccc1)c1ccccc1 (configuration not stated) | inactive: -2.8%
CN(C)c1cccc(C(=O)NCC2(N(C)C)CCCCC2)c1 | inactive: -10.2%
